For four molecules, koff and kon results are on record in patent US20160052983A1 (ALKERMES, published 2016).

Test [1] concerns the target T1, IL-1RI_Fc (fusion protein), immobilized mouse IL1RI receptor (mouse, UniProt P13504 20-338, limits assumed).
T1 construct: not shown: Fc part; captured with the Human Antibody Capture Kit
T1 sequence (looked up): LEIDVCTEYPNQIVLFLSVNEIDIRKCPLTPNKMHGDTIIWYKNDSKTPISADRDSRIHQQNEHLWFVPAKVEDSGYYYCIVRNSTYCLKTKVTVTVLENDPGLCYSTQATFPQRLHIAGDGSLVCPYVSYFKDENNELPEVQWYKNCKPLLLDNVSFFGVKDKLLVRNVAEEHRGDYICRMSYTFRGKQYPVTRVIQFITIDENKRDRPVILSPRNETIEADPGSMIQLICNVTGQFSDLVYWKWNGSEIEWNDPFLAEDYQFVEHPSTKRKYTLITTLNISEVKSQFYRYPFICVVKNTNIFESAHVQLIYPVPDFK
Nature of the test: SPR (Biacore), IL-1RI_Fc captured on the chip with the Human Antibody Capture Kit, analyte injected at 5 rising concentrations from 0.24 to 20 nM.

Test [2] addresses T1, IL-1RI_Fc (fusion protein), immobilized …. The test is described as above. The source holds these as a separate data set.
Test [3] shares this target. Nature of the test: SPR (Biacore), IL-1RI_Fc captured on the chip with the Human Antibody Capture Kit; sensorgram of Anakinra not shown, parameters in the inset only. (In general: SPR reads the build-up and loss of mass on a sensor chip optically.)
The target is the same in test [4]. Nature of the test: SPR (Biacore), IL-1RI_Fc captured on the chip with the Human Antibody Capture Kit, analyte injected at 5 rising concentrations from 0.24 to 20 nM. This is another data set of the same source.

B1: RDB1813 (IL-1Ra fused to 2 MUC20 tandem repeats, C-terminal His-tag) (other)
chain: SARRPSGRKSSKMQAFRIWDVNQKTFYLRNNQLVAGYLQGPNVNLEEKIDVVPIEPHALFLGIHGGKMCLSCVKSGDETRLQLEAVNITDLSENRKQDKRFAFIRSDSGPTTSFESAACPGWFLCTAMEADQPVSLTNMPDEGVMVTKFYFQEDEGGGGSASSESSASSDGPHPVITESRASSESSASSDGPHPVITESRGSSHHHHHH
notes: Expressed in CHO cells and heavily glycosylated on the mucin domain; also called IL1Ra 2TR; 2TR
In test [1], B1 displayed a dissociation rate constant (koff) of 8.7e-05 s⁻¹ and an on-rate constant (kon) of 360000 M⁻¹ s⁻¹.

B2: RDB1826 (IL-1Ra fused to 6 MUC20 tandem repeats, C-terminal FLAG tag) (other)
chain: SARRPSGRKSSKMQAFRIWDVNQKTFYLRNNQLVAGYLQGPNVNLEEKIDVVPIEPHALFLGIHGGKMCLSCVKSGDETRLQLEAVNITDLSENRKQDKRFAFIRSDSGPTTSFESAACPGWFLCTAMEADQPVSLTNMPDEGVMVTKFYFQEDEGGGGSSESSASSDGPHPVITPSRASESSASSDGPHPVITPSRAGGGGSSESSASSDGPHPVITPSRASESSASSDGPHPVITPSRAGGGGSSESSASSDGPHPVITPSRASESSASSDGPHPVITPSRAGGGGSDYKDDDDK
notes: Expressed in CHO cells and heavily glycosylated on the mucin domain; also called IL1Ra 6TR; 6TR
In test [2], B2 gave an off-rate (koff) of 0.000144 s⁻¹ and a kon of 270000 M⁻¹ s⁻¹.

B3: Unmodified IL-1Ra (anakinra) (ligand, human, UniProt P18510 26-177, looked up)
chain: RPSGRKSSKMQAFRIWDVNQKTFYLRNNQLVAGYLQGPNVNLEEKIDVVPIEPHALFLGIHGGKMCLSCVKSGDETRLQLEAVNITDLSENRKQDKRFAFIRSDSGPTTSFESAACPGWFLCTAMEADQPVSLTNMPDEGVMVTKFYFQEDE
notes: mature; It describes anakinra as 153 amino acids
In test [3], B3 returned a koff of 0.00015 s⁻¹ and an association rate constant (kon) of 2.8e+06 M⁻¹ s⁻¹.

B4: RDB1814 (IL-1Ra fused to 4 MUC20 tandem repeats, C-terminal His-tag) (other)
chain: SARRPSGRKSSKMQAFRIWDVNQKTFYLRNNQLVAGYLQGPNVNLEEKIDVVPIEPHALFLGIHGGKMCLSCVKSGDETRLQLEAVNITDLSENRKQDKRFAFIRSDSGPTTSFESAACPGWFLCTAMEADQPVSLTNMPDEGVMVTKFYFQEDEGGGGSASSESSASSDGPHPVITESRASSESSASSDGPHPVITESRGGGGSASSESSASSDGPHPVITESRASSESSASSDGPHPVITESRGSSHHHHHH
notes: Expressed in CHO cells and heavily glycosylated on the mucin domain; also called IL1Ra 4TR; 4TR
Regarding B4, in test [4], the koff came to 0.000106 s⁻¹ and the on-rate constant (kon) was determined as 1.6e+06 M⁻¹ s⁻¹.

Broadly, the koff is the first-order rate constant of dissociation. A lower koff goes with a long-lived complex. One may read the kon as a measure of how fast the partners come together.
